Yeast mating assay B: variants of the scFv Ab-14

Data: MIT Lincoln Laboratory AlphaSeq set, Li et al. 2023, doi:10.1038/s41467-023-39022-2, as distributed in FLAb.

All variants were tested on one target, the spike HR2 peptide PDVDLGDISGINAS (SARS-CoV-2).

Parent: Ab-14, a human scFv built as VH, three GGGGS repeats, VL. Only the CDRs of the light chain vary.
VH: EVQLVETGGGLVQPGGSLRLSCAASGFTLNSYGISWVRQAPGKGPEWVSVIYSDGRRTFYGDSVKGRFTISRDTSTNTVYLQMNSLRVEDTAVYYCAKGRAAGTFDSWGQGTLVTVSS
VL: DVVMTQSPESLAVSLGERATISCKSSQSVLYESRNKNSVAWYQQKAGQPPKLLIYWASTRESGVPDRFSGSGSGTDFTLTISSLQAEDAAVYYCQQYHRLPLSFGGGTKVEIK

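These sequences belong to a second round, designed from the earlier measurements on random variants of the parent. Group labels follow the data file (Ctrl: baseline library sampled from a position-specific scoring matrix, with some repeated check sequences; GP: Gaussian process model; Gen: genetic algorithm; a sequence that several methods proposed may carry one label only). AlphaSeq pools MATa yeast showing the antibodies with MATalpha yeast showing the peptide. After mating in shaken culture at 30 °C for 16 h, diploids were selected and their barcode pairs sequenced. The ratio of observed to expected reads was calibrated, replicate by replicate, on BCL2-family standards whose Kd was known from biolayer interferometry. Mating was done six times.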

The parent's light chain CDRs are KSSQSVLYESRNKNSVA, WASTRES, QQYHRLPLS; each variant's own CDRs replace them letter for letter. Scale: log10 of Kd in nM, estimated from mating counts; low values are strong binders. The mean shown is taken over the replicates in which the pair was detected. Where no diploid with the target was found in that replicate, the entry reads "ND": below detection, most likely a poor binder, though not proof of it. Some sequences occur more than once in the pool; their replicates are listed entry by entry, parted by semicolons.

CDR-L1 | CDR-L2 | CDR-L3 | group | log10 Kd (nM) by replicate | log10 Kd (nM), mean | control signals
KSSISVLFESNNSNAVA | WASTRES | QQYFRLPLS | Ctrl | ND ND ND ND ND ND | ND | 0/18
KMSQAVLYESRNKNSVA | WASTRES | QTYHRLPLS | Ctrl | 1.11 1.67 0.65 0.27 1.91 1.40 | 1.17 | 1/18 (2.09)
KSSQSVLYEERYMNSVA | WASTRES | QQYHRLPLS | Ctrl | ND ND ND 0.95 ND ND | 0.95 | 0/18
KSSQSVLYESANKNSVA | KASTRHS | QQGHILPLS | Ctrl | 2.27 2.53 1.27 2.22 1.57 1.66 | 1.92 | 0/18
KSSQSVLPESNNKNSVA | WASTRES | QQYHRLPLS | Ctrl | ND ND ND ND ND ND | ND | 0/18
KSNQSVLYESRNKNSVA | WASTRES | QQYHRLPLS | Ctrl | 2.38 2.21 2.72 ND 3.12 2.40 | 2.57 | 2/18 (3.14)
KSSQSVLAESRNKNSVA | DASYRES | QQPDRLPLS | Ctrl | ND ND ND ND ND ND | ND | 0/18
KSSQSVLYESRNKNSVA | WASTREV | QQYHRLPLS | Ctrl | ND 2.17 2.06 2.58 ND 2.14 | 2.24 | 0/18
KSSQSVLYESRNKNNVA | DASTRES | QGYHYLPLS | Ctrl | 0.84 0.62 0.76 0.70 0.82 0.92 | 0.78 | 1/18 (2.34)
KSSQRVLYTSRNKNSVA | RASTRES | QQYHRLPLS | Ctrl | ND ND ND ND 2.85 ND | 2.85 | 0/18
KSSQSVLYESRNKNSVA | DASTRQS | QQYHRLPLS | Ctrl | 0.38 0.13 0.14 -0.20 0.12 0.21 | 0.13 | 2/18 (2.67)
KSSQSVLYESSNFNSVA | WASTRES | QQYHRLPLS | Ctrl | 1.26 1.59 2.39 ND 1.34 1.51 | 1.62 | 1/18 (1.84)
KSSQSVLYESDNKNSVA | WASTREK | QQYHRLPLS | Ctrl | 0.81 1.35 0.49 0.95 1.02 0.91 | 0.92 | 1/18 (3.01)
KSSDSNTYESRNKASVA | SASMRES | QQYHRLPLS | Ctrl | 0.96 0.31 0.43 0.35 0.50 0.80 | 0.56 | 1/18 (2.73)
KSSVSVLYESLNKNSVA | WASTRES | QQYHRLPLS | Ctrl | ND ND ND ND ND ND | ND | 0/18
KSRQSLLYESRNKNSVA | WASTRES | QQYHHLPLF | Ctrl | 1.33 ND 2.68 ND ND 2.67 | 2.23 | 0/18
KSSQSVCYESCNKNSVA | SASTRES | QQYHRLPLS | Ctrl | 0.51 0.57 0.26 0.13 0.02 0.47 | 0.33 | 0/18
KSSQSVGVESRNKNSVA | WASTRET | QQYHRLPLS | Ctrl | 1.57 1.59 1.82 0.86 1.30 2.25 | 1.57 | 0/18
KSSQSVLYESANKNSVA | WASTREV | QQYHRLPLS | Ctrl | ND ND ND ND ND ND | ND | 0/18
KLSISVVYGSLNKNSVA | WASTREP | QQPHRLPLS | Ctrl | ND ND ND ND ND ND | ND | 0/18
KSSQSVLYESRNKNSVA | RASTRES | QQYARLPLS | Ctrl | ND ND ND ND 2.12 ND | 2.12 | 0/18
KVDQSVWKESRNKNSVA | AASWREE | QQYHQLPLS | Ctrl | 0.88 0.76 0.57 0.35 0.28 0.41 | 0.54 | 0/18
KSSQSHPDESRNKNSVA | WASTRES | QQYHRLPLS | Ctrl | 1.14 1.74 1.78 2.19 1.49 ND | 1.67 | 1/18 (1.23)
KSSQSELYESLNKNSVA | HAKTRES | QQYHRLPLS | Ctrl | 0.74 0.15 0.02 0.03 0.76 1.70 | 0.57 | 0/18
KISQSQLYESENKNSVA | HASTREL | QQYHRLPLT | Ctrl | 0.29 0.44 0.25 0.23 0.25 0.51 | 0.33 | 0/18
KLSQSVLYESFYKNSVA | WASTRES | QQYHRLPLT | Ctrl | 1.50 ND ND ND ND 2.24 | 1.87 | 0/18
KSSQSVLYESRFKNSVA | NASTRES | QTYHRLPLS | Ctrl | 0.99 0.65 1.04 1.30 0.75 0.57 | 0.88 | 0/18
KSSQSVLYESRNKNSVA | WASTRES | QQYCRLPFS | Ctrl | ND ND 2.65 3.02 ND ND | 2.84 | 1/18 (2.34)
YSSQSVLGESRAKNSVA | WASTRES | QQYHRLPLS | Ctrl | 2.48 1.50 1.16 ND 2.59 1.81 | 1.91 | 1/18 (2.30)
KMSQFVLYESRNKNSVA | SASTRES | QQYHRLPLS | Ctrl | 1.07 1.03 0.74 0.92 0.70 0.88 | 0.89 | 0/18
KVSQSVLYESRNKPSVA | WASTRES | QQYHRLFLS | Ctrl | ND ND ND ND ND ND | ND | 0/18
HSSQSVLYENRNKDSVA | GASTRES | QQYHRLPLS | Ctrl | 0.94 0.57 0.24 0.93 0.28 0.95 | 0.65 | 0/18
HSSQSVLYESRWKNSVA | WASTRES | QQYHRLPLS | Ctrl | ND 2.14 ND ND ND ND | 2.14 | 0/18
KHSQSVQYESRNHNSVA | WASTRES | QQDHRLPLS | Ctrl | ND ND ND ND ND ND | ND | 0/18
KHSQSVLYEYRNKNSVA | EASTRES | QQYARLPLS | Ctrl | 0.40 0.41 0.40 0.33 0.06 0.43; 0.67 0.27 0.50 0.32 0.43 0.50; 0.07 0.06 -0.08 -0.03 0.06 0.32; 0.39 0.33 0.18 0.05 0.25 0.20; ND 1.24 ND 2.42 1.89 1.83 | 0.50 | 2/90 (3.33)
KSSQSKLYESRNKNSVA | EASTRES | QQYHRLPLS | Ctrl | 0.98 0.65 0.71 0.43 0.69 0.65 | 0.68 | 0/18
KSEQQVLYESRNKNSVA | WASTRES | QQYHRLPLS | Ctrl | ND ND ND 1.30 ND ND | 1.30 | 0/18
KISQSVLYESRNKNSVA | WASTRES | QDYHRLPLS | Ctrl | 0.52 0.93 0.33 0.82 0.28 0.92 | 0.63 | 0/18
KISQQVLYESRNKNSVA | DASTRES | QQYHRLPLS | Ctrl+GP_Gen | -0.19 -0.35 -0.30 -0.43 -0.40 -0.29; 0.10 0.15 -0.01 -0.07 -0.03 0.14 | -0.14 | 3/36 (2.91)
YFSQSVLYESRNKNSVA | RASTRES | QQYFRLPLS | Ctrl | 0.76 0.49 0.73 0.84 0.74 0.75 | 0.72 | 0/18
KSSQSVDMESENKNSVA | DASTRES | QQYHRLPLS | Ctrl | 0.00 -0.09 -0.18 -0.08 -0.20 0.06 | -0.08 | 4/18 (2.87)
KSSQSVLYESFNKNSVA | DASTRES | QQYHRLPLS | Ctrl | 0.28 -0.13 0.46 0.25 0.15 0.08 | 0.18 | 1/18 (2.56)
KSSQEEDYESRNKNSVA | WASTRES | QQYHRLPLS | Ctrl | 0.83 1.09 0.61 0.31 0.73 0.63 | 0.70 | 0/18
LSSQSWLYESRNKNSVA | WASTRES | QQYHRLPLS | Ctrl | 1.71 ND ND ND ND ND | 1.71 | 1/18 (3.94)
KISGSVLYDSRNKNSVA | WASTRES | QQYHRLPLS | Ctrl | 1.41 1.64 1.90 2.26 1.49 2.39 | 1.85 | 0/18
KYSQSVLYESRNKNSVA | KASTRES | QQYHRLPLS | Ctrl | 1.08 1.53 1.03 1.09 1.38 0.90 | 1.17 | 2/18 (2.09)

From the list, the first 7 with no signal in any replicate:

CDR-L1	CDR-L2	CDR-L3	group	log10 Kd (nM) by replicate	log10 Kd (nM), mean	control signals
KSSISVLFESNNSNAVA	WASTRES	QQYFRLPLS	Ctrl	ND ND ND ND ND ND	ND	0/18
KSSQSVLPESNNKNSVA	WASTRES	QQYHRLPLS	Ctrl	ND ND ND ND ND ND	ND	0/18
KSSQSVLAESRNKNSVA	DASYRES	QQPDRLPLS	Ctrl	ND ND ND ND ND ND	ND	0/18
KSSVSVLYESLNKNSVA	WASTRES	QQYHRLPLS	Ctrl	ND ND ND ND ND ND	ND	0/18
KSSQSVLYESANKNSVA	WASTREV	QQYHRLPLS	Ctrl	ND ND ND ND ND ND	ND	0/18
KLSISVVYGSLNKNSVA	WASTREP	QQPHRLPLS	Ctrl	ND ND ND ND ND ND	ND	0/18
KVSQSVLYESRNKPSVA	WASTRES	QQYHRLFLS	Ctrl	ND ND ND ND ND ND	ND	0/18

Three control strains display no target. For all light chain designs, 4% of the pairings with them gave a signal, with a median of 2.64 and one signal in twenty below 1.59, so weak values seen in few replicates may be background. For each scFv, signals with the empty controls are counted beside the result, with their mean in brackets. Of ten entries with the parent sequence, four were seen in most replicates (averages 0.34 to 2.37), three in one and three in none, so single entries are noisy. In the paper, a design with two or fewer of six values counts as a poor binder. A sequence measured in both rounds can read differently, since the two assays cover different ranges.